# Laboratory results: patent publication US9694016B2 (Novartis AG, priority 2013, dated 2017)
# Sequences of proteins named here, by UniProt entry; tags and fusion partners are left off.
# UniProt P04049, whole entry Y340E/Y341E: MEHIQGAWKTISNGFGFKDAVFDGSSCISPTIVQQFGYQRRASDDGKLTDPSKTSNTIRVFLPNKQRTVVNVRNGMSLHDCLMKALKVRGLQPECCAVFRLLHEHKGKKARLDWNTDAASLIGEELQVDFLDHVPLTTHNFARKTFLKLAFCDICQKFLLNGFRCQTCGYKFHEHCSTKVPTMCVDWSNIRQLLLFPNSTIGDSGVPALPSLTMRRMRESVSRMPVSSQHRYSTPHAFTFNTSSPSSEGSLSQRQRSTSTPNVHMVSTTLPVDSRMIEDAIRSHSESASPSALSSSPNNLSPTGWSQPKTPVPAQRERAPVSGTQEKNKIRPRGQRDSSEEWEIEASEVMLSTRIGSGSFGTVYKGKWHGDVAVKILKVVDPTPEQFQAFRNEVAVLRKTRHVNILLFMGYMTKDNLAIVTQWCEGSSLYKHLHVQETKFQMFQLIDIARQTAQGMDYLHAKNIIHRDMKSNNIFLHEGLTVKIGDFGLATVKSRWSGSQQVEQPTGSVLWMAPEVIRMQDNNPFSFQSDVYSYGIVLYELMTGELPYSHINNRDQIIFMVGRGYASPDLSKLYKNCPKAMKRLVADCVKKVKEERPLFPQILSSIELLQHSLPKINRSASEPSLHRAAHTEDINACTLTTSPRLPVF
# Target: C-Raf FL (full-length C-Raf protein, Y340E and Y341E activating mutations) (Homo sapiens (Human), UniProt P04049, Y340E/Y341E)
# Type: biochemical
# Conditions: AlphaScreen, 60 min pre-incubation, 1 hour reaction; read-out: c-Raf FL IC-50
row,IC50 [nM],Compound
1,0.5,"COCCOc1nnc(-c2cc(NC(=O)c3ccnc(C(F)F)c3)ccc2C)cc1N1CCOCC1 [Example 598, 2-(difluoromethyl)-N-(3-(6-(2-methoxyethoxy)-5-morpholinopyridazin-3-yl)-4-methylphenyl)isonicotinamide]"
2,0.2,"COCCOc1nnc(-c2cc(NC(=O)c3cc(C(F)(F)F)ccn3)ccc2C)cc1N1CCOCC1 [Example 599, N-(3-(6-(2-methoxyethoxy)-5-morpholinopyridazin-3-yl)-4-methylphenyl)-4-(trifluoromethyl)picolinamide]"
3,0.3,"COCCOc1nnc(-c2cc(NC(=O)c3ccnc(C(C)(C)F)c3)ccc2C)cc1N1CCOCC1 [Example 600, 2-(2-fluoropropan-2-yl)-N-(3-(6-(2-methoxyethoxy)-5-morpholinopyridazin-3-yl)-4-methylphenyl)isonicotinamide]"
4,0.3,"COCCOc1nnc(-c2cc(NC(=O)c3ccnc(C(C)(C)C#N)c3)ccc2C)cc1N1CCOCC1 [Example 601, 2-(2-cyanopropan-2-yl)-N-(3-(6-(2-methoxyethoxy)-5-morpholinopyridazin-3-yl)-4-methylphenyl)isonicotinamide]"
5,0.9,"COc1nnc(-c2cc(NC(=O)c3ccnc(C(C)(F)F)c3)cnc2C)cc1N1CCOCC1 [Example 603, 2-(1,1-difluoroethyl)-N-(5-(6-methoxy-5-morpholinopyridazin-3-yl)-6-methylpyridin-3-yl)isonicotinamide]"
6,0.6,"COc1nnc(-c2cc(NC(=O)c3cccc(C(F)F)c3)cnc2C)cc1N1CCOCC1 [Example 604, 3-(difluoromethyl)-N-(5-(6-methoxy-5-morpholinopyridazin-3-yl)-6-methylpyridin-3-yl)benzamide]"
7,1,"COc1nnc(-c2cc(NC(=O)c3ccnc(C(F)(F)F)c3)cnc2C)cc1N1CCOCC1 [Example 605, N-(5-(6-methoxy-5-morpholinopyridazin-3-yl)-6-methylpyridin-3-yl)-2-(trifluoromethyl)isonicotinamide]"
8,1.3,"COc1nnc(-c2cc(NC(=O)c3ccnc(C4CC4)c3)cnc2C)cc1N1CCOCC1 [Example 606, 2-cyclopropyl-N-(5-(6-methoxy-5-morpholinopyridazin-3-yl)-6-methylpyridin-3-yl)isonicotinamide]"
9,1.5,"CCC(F)(F)c1cc(C(=O)Nc2cnc(C)c(-c3cc(N4CCOCC4)c(OC)nn3)c2)ccn1 [Example 607, 2-(1,1-difluoropropyl)-N-(5-(6-methoxy-5-morpholinopyridazin-3-yl)-6-methylpyridin-3-yl)isonicotinamide]"
10,0.3,"CCOc1nnc(-c2cc(NC(=O)c3cccc(C(F)(F)F)c3)cnc2C)cc1N1CCOCC1 [Example 609, N-(5-(6-ethoxy-5-morpholinopyridazin-3-yl)-6-methylpyridin-3-yl)-3-(trifluoromethyl)benzamide]"
11,1.5,"CCOc1nnc(-c2cc(NC(=O)c3ccnc(C(C)(C)F)c3)cnc2C)cc1N1CCOCC1 [Example 610, N-(5-(6-ethoxy-5-morpholinopyridazin-3-yl)-6-methylpyridin-3-yl)-2-(2-fluoropropan-2-yl)isonicotinamide]"
12,0.5,"CCOc1nnc(-c2cc(NC(=O)c3cc(C(F)(F)F)ccn3)cnc2C)cc1N1CCOCC1 [Example 611, N-(5-(6-ethoxy-5-morpholinopyridazin-3-yl)-6-methylpyridin-3-yl)-4-(trifluoromethyl)picolinamide]"
13,0.7,"CCOc1nnc(-c2cc(NC(=O)c3ccnc(C4CC4)c3)cnc2C)cc1N1CCOCC1 [Example 612, 2-cyclopropyl-N-(5-(6-ethoxy-5-morpholinopyridazin-3-yl)-6-methylpyridin-3-yl)isonicotinamide]"
14,3.6,"CCOc1nnc(-c2cc(NC(=O)c3ccnc(C(C)(C)C#N)c3)cnc2C)cc1N1CCOCC1 [Example 613, 2-(2-cyanopropan-2-yl)-N-(5-(6-ethoxy-5-morpholinopyridazin-3-yl)-6-methylpyridin-3-yl)isonicotinamide]"
15,2.9,"CCOc1nnc(-c2cc(NC(=O)c3cnnc(C(F)(F)F)c3)cnc2C)cc1N1CCOCC1 [Example 614, N-(5-(6-ethoxy-5-morpholinopyridazin-3-yl)-6-methylpyridin-3-yl)-6-(trifluoromethyl)pyridazine-4-carboxamide]"
16,8.6,"CCOc1nnc(-c2cc(NC(=O)c3ccnc(S(C)(=O)=O)c3)cnc2C)cc1N1CCOCC1 [Example 615, N-(5-(6-ethoxy-5-morpholinopyridazin-3-yl)-6-methylpyridin-3-yl)-2-(methylsulfonyl)isonicotinamide]"
17,1,"CCOc1nnc(-c2cc(NC(=O)c3ccnc(C(F)(F)CC)c3)cnc2C)cc1N1CCOCC1 [Example 617, 2-(1,1-difluoropropyl)-N-(5-(6-ethoxy-5-morpholinopyridazin-3-yl)-6-methylpyridin-3-yl)isonicotinamide]"
18,4.4,"CCOc1nnc(-c2cc(NC(=O)c3cccc(S(C)(=O)=O)c3)cnc2C)cc1N1CCOCC1 [Example 618, N-(5-(6-ethoxy-5-morpholinopyridazin-3-yl)-6-methylpyridin-3-yl)-3-(methylsulfonyl)benzamide]"
19,0.5,"CCOc1nnc(-c2cc(NC(=O)c3ccnc(C(C)(F)F)c3)cnc2C)cc1N1CCOCC1 [Example 620, 2-(1,1-difluoroethyl)-N-(5-(6-ethoxy-5-morpholinopyridazin-3-yl)-6-methylpyridin-3-yl)isonicotinamide]"
20,0.7,"CCOc1nnc(-c2cc(NC(=O)c3ccnc(C(C)C)c3)cnc2C)cc1N1CCOCC1 [Example 621, N-(5-(6-ethoxy-5-morpholinopyridazin-3-yl)-6-methylpyridin-3-yl)-2-isopropylisonicotinamide]"
21,1.2,"CCOc1nnc(-c2cc(NC(=O)c3cccc(C(F)(F)F)c3)cnc2C)cc1N1CCOC[C@H]1C [Example 622, (R)—N-(5-(6-ethoxy-5-(3-methylmorpholino)pyridazin-3-yl)-6-methylpyridin-3-yl)-3-(trifluoromethyl)benzamide]"
22,9.3,"CCOc1nnc(-c2cc(NC(=O)c3ccnc(C(C)(C)C#N)c3)cnc2C)cc1N1CCOC[C@H]1C [Example 623, (R)-2-(2-cyanopropan-2-yl)-N-(5-(6-ethoxy-5-(3-methylmorpholino)pyridazin-3-yl)-6-methylpyridin-3-yl)isonicotinamide]"
23,1.5,"CCOc1nnc(-c2cc(NC(=O)c3ccnc(C(C)(C)C#N)c3)ccc2C)cc1N1CCOC[C@H]1C [Example 624, (R)-2-(2-cyanopropan-2-yl)-N-(3-(6-ethoxy-5-(3-methylmorpholino)pyridazin-3-yl)-4-methylphenyl)isonicotinamide]"
24,0.4,"Cc1ncc(NC(=O)c2cc(C(F)(F)F)ccn2)cc1-c1cc(N2CCOCC2)c(OC2CCOCC2)nn1 [Example 629, N-(6-methyl-5-(5-morpholino-6-((tetrahydro-2H-pyran-4-yl)oxy)pyridazin-3-yl)pyridin-3-yl)-4-(trifluoromethyl)picolinamide]"
25,0.8,"Cc1ncc(NC(=O)c2ccnc(C(C)(C)F)c2)cc1-c1cc(N2CCOCC2)c(OC2CCOCC2)nn1 [Example 630, 2-(2-fluoropropan-2-yl)-N-(6-methyl-5-(5-morpholino-6-((tetrahydro-2H-pyran-4-yl)oxy)pyridazin-3-yl)pyridin-3-yl)isonicotinamide]"
26,0.8,"Cc1ncc(NC(=O)c2cnnc(C(F)(F)F)c2)cc1-c1cc(N2CCOCC2)c(OC2CCOCC2)nn1 [Example 631, N-(6-methyl-5-(5-morpholino-6-((tetrahydro-2H-pyran-4-yl)oxy)pyridazin-3-yl)pyridin-3-yl)-6-(trifluoromethyl)pyridazine-4-carboxamide]"
27,1.8,"Cc1ncc(NC(=O)c2ccnc(S(C)(=O)=O)c2)cc1-c1cc(N2CCOCC2)c(OC2CCOCC2)nn1 [Example 632, N-(6-methyl-5-(5-morpholino-6-((tetrahydro-2H-pyran-4-yl)oxy)pyridazin-3-yl)pyridin-3-yl)-2-(methylsulfonyl)isonicotinamide]"
28,2.2,"Cc1ncc(NC(=O)c2ccnc(C(C)(C)C#N)c2)cc1-c1cc(N2CCOCC2)c(OC2CCOCC2)nn1 [Example 633, 2-(2-cyanopropan-2-yl)-N-(6-methyl-5-(5-morpholino-6-((tetrahydro-2H-pyran-4-yl)oxy)pyridazin-3-yl)pyridin-3-yl)isonicotinamide]"
29,3.6,"Cc1ncc(NC(=O)c2ccnc(C(C)(C)O)c2)cc1-c1cc(N2CCOCC2)c(OC2CCOCC2)nn1 [Example 634, 2-(2-hydroxypropan-2-yl)-N-(6-methyl-5-(5-morpholino-6-((tetrahydro-2H-pyran-4-yl)oxy)pyridazin-3-yl)pyridin-3-yl)isonicotinamide]"
30,5.5,"Cc1ccc(NC(=O)c2cccc(C(C)(C)S(C)(=O)=O)c2)cc1-c1cc(N2CCOCC2)c(=O)n(C)n1 [Example 637, N-(4-methyl-3-(1-methyl-5-morpholino-6-oxo-1,6-dihydropyridazin-3-yl)phenyl)-3-(2-(methylsulfonyl)propan-2-yl)benzamide]"

row,Compound,IC50 [nM]
1,"CCOc1nnc(-c2cc(NC(=O)c3ccc(CNC)c(C(F)(F)F)c3)cnc2C)cc1N1CCOCC1 [Example 626, N-(5-(6-ethoxy-5-morpholinopyridazin-3-yl)-6-methylpyridin-3-yl)-4-((methylamino)methyl)-3-(trifluoromethyl)benzamide]",3.8
2,"CCOc1nnc(-c2cc(NC(=O)c3ccc(CO)c(C(F)(F)F)c3)cnc2C)cc1N1CCOCC1 [Example 627, N-(5-(6-ethoxy-5-morpholinopyridazin-3-yl)-6-methylpyridin-3-yl)-4-(hydroxymethyl)-3-(trifluoromethyl)benzamide]",1.1

# Same assay, conditions: read-out: c-Raf FL IC-50
row,Compound,IC50 [nM]
1,"Cc1ncc(NC(=O)c2cccc(C(F)(F)F)c2)cc1-c1cc(N2CCOCC2)c(OC2CCOCC2)nn1 [Example 636, N-(6-methyl-5-(5-morpholino-6-((tetrahydro-2H-pyran-4-yl)oxy)pyridazin-3-yl)pyridin-3-yl)-3-(trifluoromethyl)benzamide]",0.4
